Data as given in published antibiotic growth screens (doi:10.1038/s41589-023-01349-8).
The other results are listed elsewhere or left out.

Each compound was assayed on A. baumannii ATCC 17978 (assay: relative growth (fraction of control); higher = less inhibition). Conditions: 50 µM.

SMILES | relative growth
O=C(N[C@H]1C=C[C@@H](CC(=O)N2CCOCC2)O[C@H]1CO)c1ccccn1 | 1.11
O=C1OCCN1/N=C/c1ccc([N+](=O)[O-])o1 | 0.322
C=CCOC(=O)[C@@H]1[C@H]2C(=O)O[C@H](c3ccccc3)[C@H](c3ccccc3)N2[C@H](c2ccc(OCCOC(=O)[C@H]3C[C@H]4C(=O)N[C@@H](Cc5ccccc5)C(=O)N4[C@H]3c3ccc(O)cc3)cc2)[C@@]12C(=O)Nc1ccc(I)cc12 | 1.57
O=C(Nc1ccc(Oc2ccc(Cl)cc2)c(Cl)c1)c1cc(I)cc(I)c1O | 1.41
C[C@H]1CN([C@@H](C)CO)C(=O)Cc2cc(NC(=O)Nc3ccc(C#N)cc3)ccc2O[C@H]1CN(C)S(=O)(=O)c1ccc(Oc2ccccc2)cc1 | 0.858
CCCN1C[C@H](C)[C@@H](OC)CN(C)C(=O)c2ccc(NS(=O)(=O)c3cn(C)cn3)cc2OC[C@H]1C | 1.02
O=c1[nH]c(=O)n(Cc2ccccc2)c2nc[nH]c12 | 0.891
CS(=O)(=O)Nc1ccccc1O | 0.953
CN(C)CCCNC(=O)C[C@H]1C=C[C@H](NS(=O)(=O)c2ccccc2)[C@@H](CO)O1 | 1.02
CC(C)(C)NC(=O)[C@H]1CCC2C3CCC4NC(=O)C=C[C@]4(C)C3CC[C@@]21C (some centres undefined) | 1.01
COc1ccc(CCNC(=O)[C@@]2(Cc3ccccc3I)c3ccccc3C(=O)N(Cc3ccccc3OC)[C@H]2c2ccc(CO)cc2)cc1 | 1.11
COCC(=O)N[C@H]1C=C[C@H](CC(=O)N2CCCCC2)O[C@H]1CO | 1.06
O=C(C[C@@H]1C[C@@H]2c3cc(NC(=O)c4ccc5c(c4)OCO5)ccc3O[C@@H]2[C@@H](CO)O1)NCc1ccccn1 | 1.12
O=C(CSc1nnc[nH]1)C1CC1 | 0.921
N[C@H](C(=O)O)[C@H](O)c1ccc(O)c(O)c1 | 0.891
Cc1ccc(O)cc1 | 0.936
CN(C)c1nc(N(C)C)nc(N(C)C)n1 | 0.947
C=C(O)C(=O)O | 0.977
NC(=O)NC(=O)C[n+]1ccc(/C=N/O)cc1 | 0.926
C[C@@H]1CN([C@H](C)CO)S(=O)(=O)c2ccc(C3=CCCC3)cc2O[C@H]1CN(C)C(=O)C1CCOCC1 | 1.12
C[C@H](NC(=O)C[C@@H]1CC[C@H](NC(=O)CN2CCOCC2)[C@@H](CO)O1)c1ccccc1 | 0.973
Cc1ccc2nc(-c3ccc(NC(=O)C4CCC4)cc3)sc2c1 | 1.04
COc1ccc(Cn2cc[nH]c(=O)c2=O)cc1 | 1.05

SMILES | relative growth
CC[N+](CC)(CC)CCOc1cccc(OCC[N+](CC)(CC)CC)c1OCC[N+](CC)(CC)CC.[I-].[I-].[I-] | 0.991
N=C(C[n+]1ccccc1)NO | 0.906
O=C(O)c1cc(-c2ccccc2)nc2ccccc12 | 0.916
Cc1cccc(S(=O)(=O)N2C[C@@H](O)COC[C@H]3O[C@@H](CC(=O)NCCCN4CCOCC4)CC[C@@H]32)c1 | 1.01
Oc1cc(C2CCCCC2)cc(C2CCCCC2)c1 | 1.06
NCC(=O)NCC(=O)O | 1.05
CCOC(=O)[C@H]1CC(C)=NNC1=O | 0.977
O=C(NCC(=O)N1CCOCC1)c1ccccc1 | 1.17
CCNC(=O)C[C@H]1CC[C@@H](NC(=O)C2CC2)[C@H](CO)O1 | 0.947
Cc1ccc(S(=O)(=O)N2C[C@@H](O)COC[C@@H]3O[C@H](CC(=O)NCc4ccc(Cl)c(Cl)c4)CC[C@H]32)cc1 | 0.877
COc1ccc2c(c1)[n+]([O-])c1c([n+]2[O-])CCC1 | 0.943
O=C(O)c1cc(O)[nH]c(=O)c1 | 0.911
O=C(CCCCCC(=O)N/N=C/[C@H](O)[C@@H](O)[C@H](O)[C@H](O)CO)NO | 0.965
C=CCNC(=O)[C@H]1CCCN(S(C)(=O)=O)C1 | 0.923
CC(C)CN1C(=O)[C@@]2(Cc3ccccc31)c1ccccc1C(=O)N(Cc1ccccc1)[C@H]2c1ccc(CO)cc1 | 0.956
CN(C)S(=O)(=O)Nc1cccc(N)c1 | 0.647
CC/C(=C(\c1ccccc1)c1ccc(OCCN(C)C)cc1)c1ccccc1.O=C(O)CC(O)(CC(=O)O)C(=O)O | 0.641
C[C@@H](N)CCc1ccc(Br)cc1 | 0.953
COc1ccc(CCNC(=O)[C@@]2(Sc3ccc(C)cc3)CC(=O)N(C(C)C)[C@@H]2c2ccc(CO)cc2)cc1 | 1.14
Cc1csc2sc(/C=N/Cc3cccs3)c(C)c12 | 0.99
CC(C)CC#Cc1ccc2c(c1)O[C@H](CN(C)C(=O)c1cnccn1)[C@H](C)CN([C@H](C)CO)S2(=O)=O | 0.996
Cn1cnc(S(=O)(=O)N[C@@H]2CC[C@H](CC(=O)NCC3CC3)O[C@@H]2CO)c1 | 0.982
O=C(C[C@H]1CC[C@@H]2[C@H](COC[C@@H](O)CN2Cc2cccc(C(F)(F)F)c2)O1)NCCc1ccncc1 | 0.95

SMILES | relative growth
OC[C@H]1O[C@H](O)[C@H](O)[C@@H](O)[C@@H]1O | 0.92
Clc1ccc2c(c1)[C@H]1C=CC[C@@H]1[C@@H](c1ccccc1)N2 | 1.05
CC(=O)Nc1ncc(CN2CCOCC2)s1 | 0.966
O=C(O)C(O)C(O)C(=O)O.OCc1cccnc1 (centres undefined) | 0.982
CC(=O)O[C@]1(C(C)=O)CCC2C3C=C(Cl)C4=CC(=O)[C@@H]5C[C@@H]5[C@]4(C)C3CC[C@@]21C (some centres undefined) | 1.09
C[C@H]1CN([C@@H](C)CO)S(=O)(=O)c2ccc(-c3ccncc3)cc2O[C@@H]1CN(C)C(=O)c1ccc2c(c1)OCO2 | 1.02
Cc1cc([C@@H](O)CCCN)ccc1F | 1.03
O=S(=O)(O)NC1CCCCC1 | 0.961
C[C@@H]1CN(C)S(=O)(=O)CCO1 | 0.952
COc1ccc(C(C)(C)N)cc1OC | 0.882
NCCc1nc(-c2ccccc2)cs1 | 1
COc1ccc(COC[C@]23NC(=S)N[C@H](c4ccccc4O2)[C@H]3COC(=O)NCCCCCC(=O)NO)cc1 | 0.961
CC(C)CCCC(C)C1CCC2C3CC[C@H]4C[C@@H](O)CC[C@]4(C)C3CC[C@]12C (stereo partly drawn) [5alpha-CHOLESTANOL] | 1.07
CC[C@@H]1OC(OC(c2c[nH]cn2)C(NC(=O)c2nc(C(CC(N)=O)NCC(N)C(N)=O)nc(N)c2C)C(=O)NC(C)C(O)C(C)C(=O)NC(C(=O)NCCc2nc(-c3nc(C(=O)NCCCCNC(=N)N)cs3)cs2)C(C)O)[C@@H](O[C@H]2O[C@H](CO)[C@@H](O)[C@H](OC(N)=O)[C@@H]2O)[C@@H](C)[C@@H]1C.O=S(=O)(O)O.O=S(=O)(O)O (some centres undefined) [BLEOMYCIN (bleomycin B2 shown)] | 0.167
C[C@@H]1O[C@@H](O[C@H]2[C@H](Oc3cc(O)c4c(=O)cc(-c5ccc(O)cc5)oc4c3)O[C@H](CO)[C@@H](O)[C@@H]2O)[C@H](O)[C@H](O)[C@H]1O | 1.27
COCC(=O)Nc1ccc2c(c1)OC[C@@H](C)N(Cc1ccccc1F)C[C@H](C)[C@H](OC)CN(C)C2=O | 1.23
O=C(C[C@@H]1CC[C@@H](NC(=O)CN2CCOCC2)[C@H](CO)O1)NCCc1ccccc1 | 0.923
Cc1nc(-c2ccc(Cl)cc2)c(-c2ccccc2)s1 | 0.657
CCOC(=O)[C@H](CCc1ccccc1)N[C@H]1CCc2ccccc2N(CC(=O)O)C1=O.Cl | 1.04
CCCNC(=O)N[C@H]1CC[C@@H](CC(=O)N2CCN(C)CC2)O[C@H]1CO | 0.947
CCNC(=O)C[C@@H]1CC[C@@H](NC(=O)C2CCOCC2)[C@@H](CO)O1 | 1.03
O=C(C[C@@H]1CC[C@@H]2[C@H](COC[C@H](O)CN2S(=O)(=O)c2ccc(Oc3ccccc3)cc2)O1)NC1CCC1 | 0.784
O=C(C[C@@H]1C=C[C@H](NS(=O)(=O)c2ccc(F)cc2)[C@@H](CO)O1)NCCN1CCCCC1 | 1.04

SMILES | relative growth
CC(C)(C)OC(=O)Nc1ccccc1 | 1.03
Cc1cccc(NC(=O)C[C@H]2NCCNC2=O)c1 | 1
Cn1c(=O)c2c(nc(NCCN)n2C)n(C)c1=O | 0.946
O=S(=O)([O-])NC1CCCCC1.[Na+] | 1.18
Cn1cnc(S(=O)(=O)N[C@@H]2CC[C@H](CC(=O)Nc3ccccc3)O[C@@H]2CO)c1 | 0.952
Cn1cnc(S(=O)(=O)N[C@H]2C=C[C@H](CC(=O)N3CCN(c4ccccc4)CC3)O[C@@H]2CO)c1 | 1.16
Cn1c(CNc2ccccc2)cc(=O)n(C)c1=O | 0.96
COCC#Cc1ccc2c(c1)O[C@H](CN(C)C(=O)COC)[C@H](C)CN([C@H](C)CO)S2(=O)=O | 0.991
Cc1ccccc1-c1ncc(-c2ccc(Br)cc2)o1 | 0.825
COCC(=O)Nc1ccc2c(c1)[C@H]1C[C@H](CC(=O)N3CCOCC3)O[C@@H](CO)[C@H]1O2 | 1.04
C[C@@H]1CN([C@@H](C)CO)S(=O)(=O)c2ccc(-c3cccc(F)c3)cc2O[C@H]1CN(C)S(C)(=O)=O | 0.929
C=CCC[C@@H](Cc1ccc(F)cc1)C(=O)O[C@@H](CNC(=O)[C@@H](CC=C)CC(=O)N[C@@H](CO)Cc1ccccc1)c1ccccc1 | 0.958
O=C(CN1CCOCC1)N[C@@H]1CC[C@H](CCNC(=O)C2CCC2)O[C@@H]1CO | 1
C[C@H](O)C#Cc1ccc2c(c1)O[C@@H](CN(C)C(=O)C1CCCCC1)[C@@H](C)CN([C@H](C)CO)S2(=O)=O | 1.16
CC(=NNC(=O)c1nnn(-c2nonc2N)c1CN1CCC(C)CC1)c1cccc(Br)c1 | 1.27
CO[C@@H](CN(C)S(=O)(=O)c1ccc(F)cc1)[C@H](C)CN([C@@H](C)CO)S(=O)(=O)c1cccc(Cl)c1 | 0.726
CC(=O)O[C@@H]1CC2C(C)(C)C(=O)CC[C@]2(C)C2CC[C@@]3(C)[C@H](c4ccoc4)OC(=O)C4OC43[C@@]21C (some centres undefined) | 1.24
CC(=O)Oc1ccc2c(C)cc(=O)oc2c1 | 0.894
Cc1cccc(C)c1NC(=O)C1CCCCN1C.Cl (centres undefined) | 1.04
O=C(C[C@@H]1CC[C@@H]2[C@H](COC[C@H](O)CN2S(=O)(=O)c2ccc(Cl)cc2)O1)N[C@@H]1CCN(Cc2ccccc2)C1 | 0.933
